According to PubChem BioAssay (EPA / NIEHS):
The list shows a part of the results, in another mix than the full data. Calls of active or inactive are those of the source. How the source made its calls: active means hit-call score of the fitted dose curve at least 0.9, where 1 is the maximum; inactive means score below 0.9.

The chains behind the UniProt entries cited, without tags or fusion partners.
UniProt P17676, whole entry: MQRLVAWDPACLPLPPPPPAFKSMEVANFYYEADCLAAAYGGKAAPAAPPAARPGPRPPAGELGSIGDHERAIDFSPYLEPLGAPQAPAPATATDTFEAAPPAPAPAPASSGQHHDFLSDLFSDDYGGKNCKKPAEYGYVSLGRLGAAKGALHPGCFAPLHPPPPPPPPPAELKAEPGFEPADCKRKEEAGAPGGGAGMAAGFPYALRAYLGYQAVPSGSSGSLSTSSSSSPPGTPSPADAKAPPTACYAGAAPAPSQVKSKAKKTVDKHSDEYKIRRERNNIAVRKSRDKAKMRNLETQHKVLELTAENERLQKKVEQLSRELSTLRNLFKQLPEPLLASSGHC
UniProt Q96RI1, whole entry: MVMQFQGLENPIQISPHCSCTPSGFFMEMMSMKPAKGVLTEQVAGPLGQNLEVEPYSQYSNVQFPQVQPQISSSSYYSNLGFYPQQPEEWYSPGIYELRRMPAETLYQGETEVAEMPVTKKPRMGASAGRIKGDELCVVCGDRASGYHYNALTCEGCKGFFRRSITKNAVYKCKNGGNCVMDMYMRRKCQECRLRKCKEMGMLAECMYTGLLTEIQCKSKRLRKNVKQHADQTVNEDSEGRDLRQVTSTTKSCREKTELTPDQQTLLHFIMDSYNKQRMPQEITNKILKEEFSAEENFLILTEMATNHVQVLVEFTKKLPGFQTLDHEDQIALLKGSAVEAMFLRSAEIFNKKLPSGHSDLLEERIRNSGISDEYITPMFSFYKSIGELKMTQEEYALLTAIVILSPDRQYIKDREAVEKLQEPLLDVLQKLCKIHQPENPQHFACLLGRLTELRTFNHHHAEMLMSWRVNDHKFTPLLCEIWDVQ
UniProt Q00613, whole entry: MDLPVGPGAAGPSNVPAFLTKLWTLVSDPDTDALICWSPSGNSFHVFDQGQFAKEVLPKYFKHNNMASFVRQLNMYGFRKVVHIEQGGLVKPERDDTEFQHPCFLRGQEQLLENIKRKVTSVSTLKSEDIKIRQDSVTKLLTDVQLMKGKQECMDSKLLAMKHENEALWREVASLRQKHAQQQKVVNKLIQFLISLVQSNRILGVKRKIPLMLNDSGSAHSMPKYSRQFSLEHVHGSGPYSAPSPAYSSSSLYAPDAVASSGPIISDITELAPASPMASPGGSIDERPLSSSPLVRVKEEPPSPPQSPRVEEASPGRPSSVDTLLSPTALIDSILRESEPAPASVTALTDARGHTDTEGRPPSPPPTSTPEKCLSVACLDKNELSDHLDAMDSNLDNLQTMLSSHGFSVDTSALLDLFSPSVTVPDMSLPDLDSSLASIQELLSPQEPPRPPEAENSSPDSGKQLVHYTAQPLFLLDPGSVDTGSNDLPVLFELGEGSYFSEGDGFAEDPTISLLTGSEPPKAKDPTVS
UniProt P26367, whole entry: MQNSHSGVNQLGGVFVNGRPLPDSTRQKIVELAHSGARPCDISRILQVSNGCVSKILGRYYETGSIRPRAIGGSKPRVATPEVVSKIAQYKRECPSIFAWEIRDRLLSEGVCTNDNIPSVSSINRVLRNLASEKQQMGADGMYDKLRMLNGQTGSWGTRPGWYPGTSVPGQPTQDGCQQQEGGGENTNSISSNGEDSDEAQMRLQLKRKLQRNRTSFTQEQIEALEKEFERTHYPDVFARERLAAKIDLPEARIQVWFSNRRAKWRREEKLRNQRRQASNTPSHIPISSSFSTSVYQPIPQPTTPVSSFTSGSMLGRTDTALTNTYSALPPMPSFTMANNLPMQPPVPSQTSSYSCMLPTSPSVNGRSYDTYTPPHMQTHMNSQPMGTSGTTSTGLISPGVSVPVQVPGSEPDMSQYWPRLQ

What was measured:
[1] = ATG_PXRE_CIS: Attagene CIS-FACTORIAL HepG2 Assay for human Pregnane X Receptor Element (PXRE) (AID 2282957); settings: HepG2 Attagene CIS-FACTORIAL PXRE reporter, mRNA; actives raise or lower the signal
Procedure, shortened: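 Transfect HepG2 with MRTUs (cis promoter elements); dose chemical, incubate 24 h; isolate RNA, RT with oligo(dT), PCR, 6-FAM label, HpaI cut, CE. Gain/loss fit vs DMSO.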

[2] = target: CCAAT/enhancer-binding protein beta (Homo sapiens) (UniProt P17676); test: ATG_C_EBP_CIS: Attagene CIS-FACTORIAL HepG2 Assay for human CCAAT/Enhancer Binding Protein (C/EBP) beta (AID 2282927); settings: HepG2 Attagene cis-factorial transcription factor reporter; actives raise or lower the signal
Procedure, shortened: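 Chemical-treated HepG2 cells (24 h) bearing cis-regulated reporter constructs were processed for total RNA, then reverse transcription, PCR amplification, fluorescent primer extension and fragment analysis; gain- and loss-of-signal were fitted against DMSO.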

[3] = ATG_DR4_LXR_CIS: Attagene CIS-FACTORIAL HepG2 Assay for human Liver X Receptor (LXR), DR4 submotif (AID 2282929); settings: HepG2 Attagene DR4 cis-reporter, mRNA transcription; actives raise or lower the signal
Procedure, shortened: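 The endpoint is DR4-element-driven reporter transcripts after 24 h chemical exposure of transfected HepG2 cells. These were measured via RT-PCR and capillary electrophoresis, and gain or loss of signal was fitted relative to DMSO controls.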

[4] = ATG_E_Box_CIS: Attagene CIS-FACTORIAL HepG2 Assay for human Enhancer Box (E-box) (AID 2282936); settings: HepG2 E-box cis-reporter transcription, actives raise or lower the signal
Procedure, shortened: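 HepG2 cells transiently transfected with multiplexed cis-element reporter units sensing endogenous transcription factor activity; 24 h compound exposure. Reporter mRNA measured by RT-PCR, 6-FAM primer extension, HpaI digestion and capillary electrophoresis; bidirectional fit versus DMSO.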

[5] = target: Bile acid receptor (Homo sapiens) (UniProt Q96RI1); test: ATG_IR1_CIS: Attagene CIS-FACTORIAL HepG2 Assay for human Nuclear Receptor Subfamily 1 Group H Member 4 (NR1H4), IR1 submotif (AID 2282946); settings: IR1 reporter transcription, actives raise or lower the signal
Procedure, shortened: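 Transient MRTU transfection, HepG2; 24 h dosing; RNA → RT-PCR → 6-FAM primer extension → HpaI digest → capillary electrophoresis fluorescence. Gain/loss of signal fitted relative to DMSO.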

[6] = target: Heat shock factor protein 1 (Homo sapiens) (UniProt Q00613); test: ATG_HSE_CIS: Attagene CIS-FACTORIAL HepG2 Assay for human Heat Shock Transcription Factor 1 (HSE) (AID 2282953); settings: HepG2 HSE cis-reporter, Attagene RNA transcription; actives raise or lower the signal
Procedure, shortened: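 After a 24 h incubation with test chemical, transfected HepG2 cells were harvested for RNA; reporter transcripts were measured by RT-PCR and capillary electrophoresis. Values reflect gain or loss of signal relative to DMSO.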

[7] = target: Paired box protein Pax-6 (Homo sapiens) (UniProt P26367); test: ATG_Pax6_CIS: Attagene CIS-FACTORIAL HepG2 Assay for human Paired Box 6 (PAX6) (AID 2282956); settings: HepG2 CIS-FACTORIAL PAX6 reporter transcription, RNA readout; actives raise or lower the signal
Procedure, shortened: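 After twenty-four hours of chemical exposure, transfected HepG2 cells are harvested for RNA. Cis-promoter reporter transcripts are amplified, fluorescently labelled and sized by capillary electrophoresis, with gain and loss of signal scored against DMSO.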

[8] = ATG_PPRE_CIS: Attagene CIS-FACTORIAL HepG2 Assay for human Peroxisome Proliferator-activated Response Element (PPRE) (AID 2282958); settings: HepG2 PPRE cis-element reporter, Attagene transcription factor profiling; actives raise or lower the signal
Procedure, shortened: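 Endogenous PPRE-driven transcription is measured in HepG2 cells carrying transfected multi-reporter constructs. Reporter transcripts are quantified by RT-PCR, HpaI digestion and capillary electrophoresis 24 h after dosing. DMSO baseline, bidirectional fit.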

[9] = ATG_TCF_b_cat_CIS: Attagene CIS-FACTORIAL HepG2 Assay for human T-Cell-Factor with beta-catenin (TCF/b-cat) (AID 2282965); settings: HepG2 TCF/beta-catenin cis-reporter transcription, actives raise or lower the signal
Procedure, shortened: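 In this cis-format system, transfected HepG2 cells report endogenous transcription factor activity. Readout after 24 h exposure is reporter transcript abundance from RT-PCR and capillary electrophoresis, analysed for gain or loss of signal versus DMSO.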

[10] = ATG_NF_kB_CIS: Attagene CIS-FACTORIAL HepG2 Assay for human Nuclear Factor Kappa B (NF-kB) (AID 2282991); settings: HepG2 Attagene cis-factorial NF-kB reporter mRNA; actives raise or lower the signal
Procedure, shortened: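 Readout is reporter transcript level, gain or loss versus DMSO, measured 24 h post-dose via RT-PCR, fluorescent labelling and capillary electrophoresis. Human HepG2 liver cells carried transiently transfected CIS reporter constructs reflecting endogenous factors.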

[11] = ATG_NRF2_ARE_CIS: Attagene CIS-FACTORIAL HepG2 Assay for human Nuclear Factor Erythroid 2 Related Factor 2 (NFR2) response to Antioxidant Response Elements (ARE) (AID 2282992); settings: HepG2 Attagene ARE/NRF2 reporter, transcription factor activity; actives raise or lower the signal;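 further: reporter mRNA level measured by RT-PCR and capillary electrophoresis fluorescence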
Procedure, shortened: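 Cis-factorial assay: transfected HepG2 reporter library, 24 h dosing, mRNA readout via RT-PCR/CE; DMSO-referenced bidirectional analysis.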

Measured: AC50

CCCCOP(OCCCC)OCCCC
active: [1] 10.2 µM

N#CSc1ccc([N+](=O)[O-])cc1[N+](=O)[O-]
active: [2] 15.9 µM | [3] 16.8 µM | [4] 20.1 µM | [5] 20.3 µM | [6] 16.5 µM | [7] 16.4 µM | [8] 17.7 µM | [9] 11.1 µM | [10] 11.1 µM | [11] 16.2 µM

CN(C)CCCl
active: [3] 36.7 µM
